The list shows a part of the results, in another mix than the full data. Activity calls are given as the source filed them. Cut-off read from the data, not from the text of the source: active = inhibition above about 36%; inactive = the rest.
Target: Serine protease HTRA1 (Homo sapiens) (UniProt Q92743)
Assay: inhibition of human HTRA1 peptidase – biochemical, fluorescence polarization, HTS, primary screen (AID 504803);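 note: 0% = enzyme with DMSO and 100% = wells lacking enzyme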
Conditions: recombinant HTRA1, FP-rhodamine activity-based probe, at 5.96 µM, stronger effect = higher value

Sequences of proteins named here, by UniProt entry; tags and fusion partners are left off.
UniProt Q92743, whole entry, looked up: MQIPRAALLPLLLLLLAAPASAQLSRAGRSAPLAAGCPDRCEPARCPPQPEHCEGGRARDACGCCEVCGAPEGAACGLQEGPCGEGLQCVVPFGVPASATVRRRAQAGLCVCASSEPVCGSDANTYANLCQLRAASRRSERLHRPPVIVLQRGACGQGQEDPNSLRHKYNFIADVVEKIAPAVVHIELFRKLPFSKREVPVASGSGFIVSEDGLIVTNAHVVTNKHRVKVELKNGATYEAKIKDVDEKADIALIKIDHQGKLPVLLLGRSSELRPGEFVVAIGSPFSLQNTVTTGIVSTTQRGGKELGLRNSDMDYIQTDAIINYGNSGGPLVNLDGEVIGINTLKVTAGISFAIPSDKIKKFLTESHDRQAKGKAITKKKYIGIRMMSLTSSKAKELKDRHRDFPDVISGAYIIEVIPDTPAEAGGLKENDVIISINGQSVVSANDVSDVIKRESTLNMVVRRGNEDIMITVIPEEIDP

SMILES | inhibition
CC(C)(C)C(=O)NC(Sc1ncccn1)C(Cl)(Cl)Cl (configuration not stated) | inactive: -2.48%
O=P1(Nc2ncccn2)COc2ccccc2OC1 | inactive: 4.8%
Nc1cccc([As](=O)(O)c2ccccc2)c1 | inactive: -1.34%
Cc1ccc(OCC(=O)OC2CN3CCC2CC3)cc1 (configuration not stated) | inactive: -4.3%
O=[As](O)(c1cccs1)c1cccs1 | inactive: 9.55%
O=P1(Nc2ccc(Br)cn2)COc2ccccc2OC1 | inactive: -0.27%
NS(=O)(=O)c1cccc(NC(=O)COC(=O)C(O)(c2ccccc2)c2ccccc2)c1 | inactive: -9.35%
Cc1nn(-c2ccccc2)c2c1P(=O)(N1CCOCC1)N(C)C(c1ccccc1)=N2 (configuration not stated) | inactive: -6%
CC1CCC(C(C)C)C(OP(=O)(Nc2ccccn2)c2ccccc2)C1 (configuration not stated) | inactive: -18.7%
Cc1ccc(C(=O)OC2CN3CCC2CC3)cc1 (configuration not stated) | inactive: -0.07%
CN(C)C1(CNC(=O)c2ccc(S(C)(=O)=O)cc2)CCCCC1 | inactive: 3.2%
O=C(/C=C/c1ccccc1)OC1CN2CCC1CC2 (configuration not stated) | inactive: -0.15%
CCCC1OP(=O)(Nc2ccccc2)OCC1CC (configuration not stated) | inactive: 1.47%
NC(=O)Nc1ccc([As](=O)(O)O)cc1 | inactive: -2.92%
N#CCCN(C(=O)COC(=O)C(O)(c1ccccc1)c1ccccc1)c1ccc(F)cc1 | inactive: -0.91%
CN(C(=O)Cc1ccccc1)[C@@H]1CC[C@]2(CCCO2)C[C@H]1N1CCCC1 | inactive: 0.4%
CCOP1(=S)c2c(C)nn(CCC#N)c2N=C(c2ccc(F)cc2)N1C (configuration not stated) | inactive: -0.06%
O=[N+]([O-])c1ccc2c(c1)nnn2O | inactive: -0.9%
CN(C)C(=O)c1cc([N+](=O)[O-])cc2c1-c1c(cc([N+](=O)[O-])cc1[N+](=O)[O-])C2=O | active: 48.5%

SMILES | inhibition
CN(C(=O)Cc1ccc(Cl)c(Cl)c1)[C@H]1CC[C@@]2(CCCO2)C[C@@H]1N1CCCC1 | inactive: 1.85%
CCOP1(=S)c2c(C)nn(CCC#N)c2N=C(c2ccccc2F)N1C (configuration not stated) | inactive: -0.82%
O=P(Nc1nccs1)(Oc1ccccc1)Oc1ccccc1 | inactive: -1.53%
O=P(Nc1nccs1)(c1ccccc1)c1nc2ccccc2s1 (configuration not stated) | inactive: 9.45%
CS(=O)(=O)c1cc([N+](=O)[O-])c2no[n+]([O-])c2c1 | inactive: 12.2%
Nc1ccccc1[As](=O)(O)c1ccccc1 | inactive: 1.57%
O=C(O)COc1ccc([As](=O)(O)O)cc1[N+](=O)[O-] | inactive: -1.71%
Cc1ccc(NCCc2c([N+](=O)[O-])cc([N+](=O)[O-])cc2[N+](=O)[O-])cc1 | active: 43.3%
Nc1cccc2c([As](=O)(O)O)cccc12 | active: 59.9%
CCCOP(=S)(Nc1nc(N)cc(=O)[nH]1)OCCC | inactive: 3.68%
COc1cc(C2NCCC3(OCCO3)C2(C)C)cc(OC)c1OC (configuration not stated) | inactive: -2.05%
CCOP(=O)(Nc1cccc2ccccc12)OCC | inactive: 1.84%
O=C(OC1CN2CCC1CC2)c1ccc(Cl)cc1 (configuration not stated) | inactive: 3.97%
O=[As](O)(O)c1cccnc1 | inactive: -8.45%
COc1cc(C(=O)NCC2(N3CCOCC3)CCCCC2)cc(Cl)c1OC(C)C | inactive: -3.96%
CS(=O)(=O)c1ccc(Cl)c(NC(=O)COC(=O)C(O)(c2ccccc2)c2ccccc2)c1 | inactive: -8.23%
Cc1cccc(OCC(=O)OC2CN3CCC2CC3)c1 (configuration not stated) | inactive: -2.4%
O=[As](O)(c1cccc(O)c1)c1cccc(O)c1 | inactive: 3.96%
